These results are taken from patent US11292791B2 (priority 2017, dated 2022).

The assay addresses BRD4 (Homo sapiens (Human), UniProt O60885). Nature of the assay: biochemical. As to conditions: BRD4 IC50 (μM gmean).

By IC50 is commonly meant the concentration needed to halve the response being measured. The low end stands for greater potency in that assay, the high end for weaker potency in that assay. In turn, `COC(=O)N1c2ccc3c(nc(C4(n5cc6ccccc6n5)CC4)n3[C@H]3CC[C@H](C(=O)O)CC3)c2CC[C@@H]1C` [Example 487] had an IC50 of 0.1 to 1 µM.
The result for `COC(=O)N1c2ccc3c(nc(C(Cc4ccccc4)NC(C)=O)n3C3CCC(C(=O)O)CC3)c2CC[C@@H]1C` (stereo partly drawn) [Example 517] reads 0.1 to 1 µM; that for `COC(=O)N1c2ccc3c(nc(C(O)Cc4ccccc4)n3C3CCCC(C(=O)O)C3)c2CC[C@@H]1C` (stereo partly drawn) [Example 503], 0.1 to 1 µM; that for `COC(=O)N1c2ccc3c(nc(C(C)Cn4cc(Cl)cn4)n3C3CCCNCC3)c2CC[C@@H]1C` (stereo partly drawn) [Example 686], 0.1 to 1 µM.
The result for `COC(=O)N1c2ccc3c(nc(N(C)c4ccccc4)n3[C@H]3CC[C@H](C(=O)O)CC3)c2CC[C@@H]1C` [Example 694] reads 0.1 to 1 µM; that for `COC(=O)N1c2ccc3c(nc(C(C)Cn4cc(Cl)cn4)n3C3CCNC3)c2CC[C@@H]1C` (stereo partly drawn) [Example 520], 0.1 to 1 µM.
In the case of `COC(=O)N1c2ccc3c(nc(C(O)Cc4ccccc4)n3C3CCC(C(=O)O)CC3)c2CC[C@@H]1C` (stereo partly drawn) [Example 569], the concentration for half-maximal inhibition (IC50) was in the range of 0.1 to 1 µM.
The result for `COC(=O)N1c2ccc3c(nc(Cc4ccccc4)n3[C@@H]3CC[C@@H](C(N)=O)OC3)c2CC[C@@H]1C` [Example 73, methyl (S)-2-benzyl-3-((3R,6S)-6-carbamoyltetrahydro-2H-pyran-3-yl)-7-methyl-3,7,8,9-tetrahydro-6H-imidazo[4,5-f]quinoline-6-carboxylate] reads 1 to 1000 µM.
The result for `COC(=O)N1c2ccc3c(nc(C(C)Cc4ccccc4)n3C3CCCNCC3)c2CC[C@@H]1C` (stereo partly drawn) [Example 567] reads 0.1 to 1 µM; that for `COC(=O)N1c2ccc3c(nc(C(=O)c4ccccc4)n3[C@@H]3CCC[C@@H](C(=O)O)C3)c2CC[C@@H]1C` [Example 874], 0.1 to 1 µM.
The result for `COC(=O)N1c2ccc3c(nc(C(C)C(O)c4ccccc4)n3C3CCCC(C(=O)O)C3)c2CC[C@@H]1C` (stereo partly drawn) [Example 425] reads 0.1 to 1 µM; that for `COC(=O)N1c2ccc3c(nc(Cc4cnc5c(n4)CCCC5)n3[C@@H]3CCC[C@@H](C(=O)O)C3)c2CC[C@@H]1C` [Example 556], 0.1 to 1 µM; that for `COC(=O)N1c2ccc3c(nc(OCCCc4ccccc4)n3[C@H]3CC[C@H](C(=O)O)CC3)c2CC[C@@H]1C` [Example 767], 0.1 to 1 µM.
As for `COC(=O)N1c2ccc3c(nc(C(C)Cn4cc(Cl)cn4)n3C3CC4(CCNC4)C3)c2CC[C@@H]1C` (stereo partly drawn) [Example 736], the IC50 lay within 0.1 to 1 µM.
On to `COC(=O)N1c2ccc3c(nc(Nc4ccc(C)cc4)n3[C@H]3CC[C@H](C(=O)O)CC3)c2CC[C@@H]1C` [Example 838], for which the concentration for half-maximal inhibition (IC50) lay within 0.1 to 1 µM.
The result for `COC(=O)N1c2ccc3c(nc(C(O)c4ccc5[nH]ncc5c4)n3C3CCCC(C(=O)O)C3)c2CC[C@@H]1C` (stereo partly drawn) [Example 480] reads 0.1 to 1 µM; that for `COC(=O)N1c2ccc3c(nc(C(O)c4cccc5c4COC5)n3C3CCCC(C(=O)O)C3)c2CC[C@@H]1C` (stereo partly drawn) [Example 826], 0.1 to 1 µM; that for `COC(=O)N1c2ccc3c(nc(C(Cc4ccccc4)NC(C)=O)n3C3CCCC(C(=O)O)C3)c2CC[C@@H]1C` (stereo partly drawn) [Example 554], 0.1 to 1 µM.
The compound `COC(=O)N1c2ccc3c(nc(C(C)(O)Cc4ccccc4)n3C3CCCC(C(=O)O)C3)c2CC[C@@H]1C` (stereo partly drawn) [Example 618] displayed an IC50 of 0.1 to 1 µM.
The compound `COC(=O)N1c2ccc3c(nc(C(C)Cc4ccccc4)n3C3CCC4(CC3)CNC4)c2CC[C@@H]1C` (stereo partly drawn) [Example 576] registered an IC50 of 0.1 to 1 µM.
Next, `COC(=O)N1c2ccc3c(nc(N(C)c4ccccc4OC)n3[C@H]3CC[C@H](C(=O)O)CC3)c2CC[C@@H]1C` [Example 761]: 0.1 to 1 µM; `COC(=O)N1c2ccc3c(nc(Cc4ccccc4)n3[C@@H]3CC[C@H](C(=O)O)C(C)(C)C3)c2CC[C@@H]1C` [Example 49, (1S,4R)-4-[(7S)-2-benzyl-6-(methoxycarbonyl)-7-methyl-3H,6H,7H,8H,9H-imidazo[4,5-f]quinolin-3-yl]-2,2-dimethylcyclohexane-1-carboxylic Acid]: 1 to 1000 µM; `COC(=O)N1c2ccc3c(nc(CC(O)c4ccccc4)n3C3CCCC(C(=O)O)C3)c2CC[C@@H]1C` (stereo partly drawn) [Example 548]: 0.1 to 1 µM.
In turn, `COC(=O)N1c2ccc3c(nc(C4(c5ccc(OC(F)F)nc5)CC4)n3[C@@H]3CCC[C@@H](C(=O)O)C3)c2CC[C@@H]1C` [Example 484] displayed an IC50 of 0.1 to 1 µM.
`COC(=O)N1c2ccc3c(nc(C(C)n4c(O)cc5ccccc54)n3C3CCCC(C(=O)O)C3)c2CC[C@@H]1C` (stereo partly drawn) [Example 666] had an IC50 of 0.1 to 1 µM.
`COC(=O)N1c2ccc3c(nc(C(C)Cc4cnccn4)n3C3CCC(C(=O)O)CC3)c2CC[C@@H]1C` (stereo partly drawn) [Example 552] gave a 50% inhibitory concentration (IC50) of 0.1 to 1 µM.
The compound `COC(=O)N1c2ccc3c(nc(C(O)c4cc(F)cc5cn[nH]c45)n3C3CCCC(C(=O)O)C3)c2CC[C@@H]1C` (stereo partly drawn) [Example 478] displayed a half-maximal inhibitory concentration (IC50) of 0.1 to 1 µM.
For `COC(=O)N1c2ccc3c(nc(C(C)C(=O)N4CCCCC4)n3C3CCCC(C(=O)O)C3)c2CC[C@@H]1C` (stereo partly drawn) [Example 623], the IC50 was 0.1 to 1 µM.
`COC(=O)N1c2ccc3c(nc(C(C)Oc4ccccn4)n3C3CCC(C(=O)O)CC3)c2CC[C@@H]1C` (stereo partly drawn) [Example 765] showed an IC50 of 0.1 to 1 µM.
In the case of `COC(=O)N1c2ccc3c(nc(C(O)c4cc(F)ccc4OC(C)C)n3C3CCCC(C(=O)O)C3)c2CC[C@@H]1C` (stereo partly drawn) [Example 445], the IC50 fell in the range of 0.1 to 1 µM.
For `COC(=O)N1c2ccc3c(nc(CCC4CCC4)n3[C@@H]3CCC[C@H](C(=O)O)C3)c2CC[C@@H]1C` [Example 818], the half-inhibitory concentration (IC50) was 0.1 to 1 µM.
The result for `COC(=O)N1c2ccc3c(nc(C(C)Cn4cc(Cl)cn4)n3C3CCC4(CC3)CNC4)c2CC[C@@H]1C` (stereo partly drawn) [Example 609] reads 0.1 to 1 µM; that for `COC(=O)N1c2ccc3c(nc(Cc4ccc5[nH]ccc5c4)n3[C@H]3CC[C@H](C(=O)O)CC3)c2CC[C@@H]1C` [Example 494], 0.1 to 1 µM; that for `COC(=O)N1c2ccc3c(nc(N(C)S(=O)(=O)c4ccccc4)n3[C@@H]3CCC[C@@H](C(=O)O)C3)c2CC[C@@H]1C` [Example 670], 0.1 to 1 µM.
Consider `COC(=O)N1c2ccc3c(nc(Cc4ccc(OC(C)C)c(F)c4)n3[C@H]3CC[C@H](C(=O)O)CC3)c2CC[C@@H]1C` [Example 412], for which the IC50 lay in the range of 0.1 to 1 µM.
Next, `COC(=O)N1c2ccc3c(nc(C(O)c4ccc(OC)c(Cl)c4)n3C3CCCC(C(=O)O)C3)c2CC[C@@H]1C` (stereo partly drawn) [Example 416]: 0.1 to 1 µM.
Consider `COC(=O)N1c2ccc3c(nc(Nc4ccc(F)c(OC)c4)n3[C@H]3CC[C@H](C(=O)O)CC3)c2CC[C@@H]1C` [Example 899], for which the half-inhibitory concentration (IC50) fell in the range of 0.1 to 1 µM.
The result for `COC(=O)N1c2ccc3c(nc(Nc4ccc(F)c(F)c4)n3[C@H]3CC[C@H](C(=O)O)CC3)c2CC[C@@H]1C` [Example 881] reads 0.1 to 1 µM.
Take `COC(=O)N1c2ccc3c(nc(Nc4ccc5cn[nH]c5c4)n3[C@@H]3CCC[C@@H](C(=O)O)C3)c2CC[C@@H]1C` [Example 830]: the IC50 was 0.1 to 1 µM.
`COC(=O)N1c2ccc3c(nc(C(O)c4ccc(OC)cc4Cl)n3C3CCCC(C(=O)O)C3)c2CC[C@@H]1C` (stereo partly drawn) [Example 430] showed a concentration for half-maximal inhibition (IC50) of 0.1 to 1 µM.
The compound `COC(=O)N1c2ccc3c(nc(OCCc4ccccc4)n3[C@@H]3CCC[C@@H](C(=O)O)C3)c2CC[C@@H]1C` [Example 873] gave an IC50 of 0.1 to 1 µM.
The result for `COC(=O)N1c2ccc3c(nc(Cc4ccccc4)n3[C@H]3CC[C@@H](C(=O)O)C(C)(C)C3)c2CC[C@@H]1C` [Example 48, (1R,4S)-4-[(7S)-2-benzyl-6-(methoxycarbonyl)-7-methyl-3H,6H,7H,8H,9H-imidazo[4,5-f]quinolin-3-yl]-2,2-dimethylcyclohexane-1-carboxylic acid] reads 1 to 1000 µM; that for `COC(=O)N1c2ccc3c(nc(CC(O)c4ccccc4)n3C3CCC(C(=O)O)CC3)c2CC[C@@H]1C` (stereo partly drawn) [Example 658], 0.1 to 1 µM; that for `COC(=O)N1c2ccc3c(nc(N(C)c4ccccc4C)n3[C@H]3CC[C@H](C(=O)O)CC3)c2CC[C@@H]1C` [Example 598], 0.1 to 1 µM.
The compound `COC(=O)N1c2ccc3c(nc(C(O)c4c(OC)ccc(F)c4OC)n3C3CCCC(C(=O)O)C3)c2CC[C@@H]1C` (stereo partly drawn) [Example 464] displayed a 50% inhibitory concentration (IC50) of 0.1 to 1 µM.
Compound `COC(=O)N1c2ccc3c(nc(Cc4cnn(C5CC5)c4)n3[C@@H]3CCC[C@@H](C(=O)O)C3)c2CC[C@@H]1C` [Example 672] gave a half-inhibitory concentration (IC50) of 0.1 to 1 µM.
Next, `COC(=O)N1c2ccc3c(nc(C(O)c4cc(F)cc5cc[nH]c45)n3C3CCCC(C(=O)O)C3)c2CC[C@@H]1C` (stereo partly drawn) [Example 434]: 0.1 to 1 µM; `COC(=O)N1c2ccc3c(nc(Nc4cccc(Cl)c4)n3[C@@H]3CCC[C@@H](C(=O)O)C3)c2CC[C@@H]1C` [Example 788]: 0.1 to 1 µM; `COC(=O)N1c2ccc3c(nc(C(C)(O)Cc4ccccc4)n3C3CCCC(C(=O)O)C3)c2CC[C@@H]1C` (stereo partly drawn) [Example 453]: 0.01 to 0.1 µM.
Next, `COC(=O)N1c2ccc3c(nc(Cc4cc(F)cc(OC)c4)n3[C@H]3CC[C@H](C(=O)O)CC3)c2CC[C@@H]1C` [Example 595]: 0.1 to 1 µM.
Turning to `COC(=O)N1c2ccc3c(nc(Cn4ccc5ccc(C#N)nc54)n3[C@@H]3CCC[C@@H](C(=O)O)C3)c2CC[C@@H]1C` [Example 476], the IC50 fell in the range of 0.1 to 1 µM.
Turning to `COC(=O)N1c2ccc3c(nc(C(C)c4ccc(OC)c(F)c4)n3C3CCC(C(=O)O)CC3)c2CC[C@@H]1C` (stereo partly drawn) [Example 653], the IC50 is 0.1 to 1 µM.
Next, `COC(=O)N1c2ccc3c(nc(Cc4ccccc4)n3[C@H]3CC[C@@H](C(N)=O)CC3)c2CC[C@@H]1C` [Example 75]: 0.1 to 1 µM.
The result for `COC(=O)N1c2ccc3c(nc(Nc4ccc(OC)nc4)n3[C@@H]3CCC[C@@H](C(=O)O)C3)c2CC[C@@H]1C` [Example 850] reads 0.1 to 1 µM.
In the case of `COC(=O)N1c2ccc3c(nc(C(O)c4ccc(OC)cc4)n3C3CCCC(C(=O)O)C3)c2CC[C@@H]1C` (stereo partly drawn) [Example 470], the IC50 lay in the range of 0.1 to 1 µM.
For `COC(=O)N1c2ccc3c(nc(C(O)c4ccc5c(c4)CCO5)n3C3CCCC(C(=O)O)C3)c2CC[C@@H]1C` (stereo partly drawn) [Example 419], the IC50 was in the range of 0.1 to 1 µM.
Next, `COC(=O)N1c2ccc3c(nc(NS(=O)(=O)c4ccccc4)n3[C@@H]3CCC[C@@H](C(=O)O)C3)c2CC[C@@H]1C` [Example 715]: 0.1 to 1 µM.
